# Apparent affinities of Ab-14 variants for a coronavirus HR2 peptide

Source: Li et al. 2023 (doi:10.1038/s41467-023-39022-2), MIT Lincoln Laboratory and A-Alpha Bio; data file from the FLAb repository.

Target: peptide PDVDLGDISGINAS, taken from heptad repeat 2 (HR2) of SARS-CoV-2 spike.

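The parent was found by panning a naive human phage display library on the peptide. Designed CDR sequences, proposed from the first random library and measured here. Their group label is 14H_En_Gen (En: ensemble of fine-tuned language models; Gen: genetic algorithm). In AlphaSeq, yeast of one mating type display the scFv and yeast of the other type display the target. The frequency of each diploid, read from paired DNA barcodes, reflects how well the two displayed proteins bind. A regression on co-assayed BCL2-family reference pairs converts the normalised counts of each replicate to an apparent Kd. The assay was run in six technical replicates.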

Ab-14 is the parent antibody, in scFv form: VH, then the linker GGGGSGGGGSGGGGS, then VL. The light chain is unchanged in all variants.
VH: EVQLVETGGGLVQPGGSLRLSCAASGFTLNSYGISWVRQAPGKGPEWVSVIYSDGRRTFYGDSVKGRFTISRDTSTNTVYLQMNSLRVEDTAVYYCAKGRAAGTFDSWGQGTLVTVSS
VL: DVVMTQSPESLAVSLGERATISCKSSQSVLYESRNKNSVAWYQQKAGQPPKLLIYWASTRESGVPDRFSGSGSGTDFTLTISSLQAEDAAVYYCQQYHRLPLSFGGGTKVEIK

Variants are written as CDR1, CDR2 and CDR3 of the heavy chain (limits as in the source). Parent: GFTLNSYGIS, VIYSDGRRTFYGDSVK, GRAAGTFDS. Affinities are written as log10 Kd with Kd in nM; a lower number is a better binder. A mean of the replicates is given; it leaves out those without a signal. A pair that was not seen in that replicate is written "nd"; this usually means weak binding, but a binder can also be missed. Empty control strains, which show no peptide, gave a signal in 1% of pairings with all heavy chain designs; the median was 2.08 and 95% of these signals were weaker than 0.84. No background was subtracted. Also given: how often the same scFv was detected with the empty control strains. The parent sequence was in this pool as ten entries: three were never detected, three once, and four in most replicates, with averages from 0.34 to 2.37. Values of this round are not directly comparable with the first-round values of the same sequences. The authors averaged sequences with at least three values out of six and counted those with two or fewer as poor binders.

Variant GFDLNEYGIS | VIYADGRRTAYADDVK | GANAGTFDV gave -0.62, -0.59, -0.79, -0.84, -0.74, -0.79 (mean -0.73; controls 0 of 18).
Variant GFDLDEYGIS | VIYADGMRTFYADNVK | GEVAGTFDV gave 0.30, -0.28, -0.19, -0.06, -0.15, 0.14 (mean -0.04; controls 1 of 18).
Variant GFDLDEYGIS | VIYADGKRTAYVDSVK | GENAGTFDI gave -0.96, 0.14, -0.77, -0.61, -0.50, -0.98 (mean -0.61; controls 0 of 18).
Variant GFDLNEYGIS | VIYADGMRTVYADSVK | GNVAGTFDL gave -0.41, -0.60, -0.63, -0.76, -0.53, -0.54 (mean -0.58; controls 0 of 18).
Variant GFDLDEYGIS | VIYADGSRTAYADSVK | GGNAGTFDV gave 1.50, 1.24, 1.32, 2.41, 1.06, 1.99 (mean 1.59; controls 0 of 18).
Variant GFDLNEYGIS | VIYADGMRTAYSDSVK | GNTAGTFDM gave -0.65, -0.69, -0.83, -0.39, -0.67, -0.42 (mean -0.61; controls 0 of 18).
Variant GFDLDEYGIS | VIYADGMRTFYADSVK | GNQAGTFDL gave -0.19, -0.29, -0.55, -0.48, -0.29, -0.23 (mean -0.34; controls 1 of 18).
Variant GFDLNEYGIS | VIYADGRRTVYADSVK | GQNAGTFDV gave -0.05, 0.09, 0.44, 0.79, -0.41, 0.93 (mean 0.30; controls 0 of 18).
Variant GFDLDEYGIS | VIYADGKRTYYADSVK | GEVAGTFDV gave -0.07, -0.32, -0.31, -0.48, -0.57, -0.05 (mean -0.30; controls 0 of 18).
Variant GFDLNEYGIS | VIYADGSRTAYADSVK | GNNAGTFDQ gave 0.34, -0.27, -0.50, -0.11, -0.16, -0.31 (mean -0.17; controls 0 of 18).
Variant GFDLDEYGIS | VIYADGVRTAYADDVK | GNVAGTFDI gave -0.30, 0.02, -0.86, -0.74, 0.16, -0.68 (mean -0.40; controls 0 of 18).
Variant GFDLNEYGIS | VIYADGLRTAYADSVK | GNTAGTFDI gave -0.20, -0.37, -0.50, -0.48, -0.61, -0.31 (mean -0.41; controls 0 of 18).
Variant GFDLNEYGIS | VIYADGVRTAYADKVK | GEVAGTFDV gave -0.92, -0.63, -0.35, -0.28, -0.26, -0.79 (mean -0.54; controls 0 of 18).
Variant GFDLNEYGIS | VIYADGMRTAYADTVK | GNVAGTFDL gave -0.48, -0.51, -0.02, -0.05, -0.50, 0.07 (mean -0.25; controls 3 of 18).
Variant GFDLNEYGIS | VIYADGMRKAYADDVK | GENAGTFDV gave -1.61, -1.40, -1.18, -0.82, -0.86, -1.10 (mean -1.16; controls 0 of 18).
Variant GFSLDEYGIS | VIYADGMRTAYSDSVK | GNVAGTFDV gave -0.57, -0.58, -0.67, -0.71, -0.46, -0.56 (mean -0.59; controls 0 of 18).
Variant GFDLDEYGIS | VIYADGVRTVYADSVK | GENAGTFDV gave 0.33, 0.39, 0.25, 0.04, -0.20, 0.51 (mean 0.22; controls 0 of 18).
Variant GFDLNEYGIS | VIYADGVRTAYADDVK | GNVAGTFDM gave -0.39, -0.45, -0.48, -0.50, -0.63, -0.48 (mean -0.49; controls 0 of 18).
Variant GFDLDEYGIS | VIYADGMRTAYADDVK | GNQAGTFDT gave -0.17, 0.67, -0.11, -0.46, 0.07, 0.06 (mean 0.01; controls 0 of 18).
Variant GFDLNEYGIS | VIYADGMRTVYTDSVK | GNVAGTFDV gave -0.38, -0.39, -0.32, -0.63, -0.54, -0.33 (mean -0.43; controls 1 of 18).
Variant GFDLNEYGIS | VIYADGMRTAYIDSVK | GTNAGTFDI gave -0.44, -0.16, -0.55, -0.79, -0.41, 0.12 (mean -0.37; controls 0 of 18).
Variant GFDLNEYGIS | VIYADGRRKAYADSVK | GQNAGTFDV gave -0.93, -1.17, nd, -0.90, -1.11, -1.45 (mean -1.11; controls 0 of 18).
Variant GFDLNEYGIS | VIYADGSRTAYADSVK | GETAGTFDL gave 0.31, -0.05, 0.07, -0.34, -0.24, 0.05 (mean -0.03; controls 0 of 18).
Variant GFDLNEYGIS | VIYADGMRQAYADSVK | GNVAGTFDV gave -0.64, -0.51, -0.82, -0.83, -0.74, -0.61 (mean -0.69; controls 0 of 18).
Variant GFDLDEYGIS | VIYADGQRTAYADSVK | GSNAGTFDV gave nd, 0.82, -0.28, -0.72, 0.16, -0.39 (mean -0.08; controls 0 of 18).
Variant GFDLNEYGIS | VIYADGKRTAYADSVK | GGVAGTFDI gave -0.33, -0.20, -0.39, -0.54, -0.27, -0.10 (mean -0.30; controls 0 of 18).
Variant GFDLDEYGIS | VIYADGMRTAYSDSVK | GEVAGTFDA gave nd, -0.81, 0.76, -0.01, 0.77, 0.22 (mean 0.19; controls 0 of 18).
Variant GFDLNEYGIS | VIYADGMRTAYSDSVK | GTNAGTFDQ gave -0.28, -0.29, -1.24, -1.06, -0.90, -0.44 (mean -0.70; controls 1 of 18).
Variant GFDLDEYGIS | VIYADGQRTYYADSVK | GEVAGTFDV gave -0.05, -0.55, -0.15, -0.61, -0.72, -0.24 (mean -0.39; controls 0 of 18).
Variant GFDLDEYGIS | VIYADGKRKAYADSVK | GNVAGTFDV gave -1.12, -1.03, -1.66, -0.87, -1.06, 0.45 (mean -0.88; controls 1 of 18).
Variant GFDLNEYGIS | VIYADGMRTAYVDSVK | GNVAGTFDM gave 0.39, 0.19, -0.02, -0.18, 0.30, 0.41 (mean 0.18; controls 0 of 18).
Variant GFDLNEYGIS | VIYADGKRTFYTDSVK | GNVAGTFDV gave -0.49, -0.60, -0.55, -0.98, -0.64, -0.42 (mean -0.61; controls 3 of 18).
Variant GFDLNEYGIS | VIYADGMRTAYVDDVK | GNVAGTFDL gave -0.40, 0.30, -0.10, -0.32, -0.36, -0.32 (mean -0.20; controls 0 of 18).
Variant GFDLDEYGIS | VIYADGMRTAYADDVK | GQNAGTFDV gave -0.46, -0.37, 0.16, -0.47, -0.28, -0.26 (mean -0.28; controls 0 of 18).
Variant GFDLNEYGIS | VIYADGSRTAYVDSVK | GENAGTFDV gave 0.47, 0.25, 0.26, -0.62, -0.45, 0.24 (mean 0.02; controls 0 of 18).
Variant GFDLDEYGIS | VIYADGVRTAYADDVK | GNNAGTFDV gave -0.20, -1.00, -0.80, -0.03, -0.33, -0.45 (mean -0.47; controls 0 of 18).
Variant GFDLNEYGIS | VIYADGKRTAYVDDVK | GNQAGTFDV gave -0.63, -0.44, -0.50, -0.49, -0.22, -0.37 (mean -0.44; controls 0 of 18).
Variant GFDLNEYGIS | VIYADGVRTAYADNVK | GQNAGTFDV gave -0.43, -0.18, -0.45, -0.55, -0.47, -0.19 (mean -0.38; controls 1 of 18).
Variant GFDLNEYGIS | VIYADGQRKFYADSVK | GNVAGTFDV gave -0.34, -0.60, -0.53, -0.61, -0.47, -0.57 (mean -0.52; controls 0 of 18).
Variant GFDLNEYGIS | VIYADGMRTAYADSVK | GTVAGTFDI gave 0.38, 0.56, 0.69, -0.33, -0.72, -0.21 (mean 0.06; controls 0 of 18).
Variant GFDLDEYGIS | VIYADGMRTAYSDSVK | GQVAGTFDV gave -0.52, -0.83, -1.57, -1.45, -1.23, -1.05 (mean -1.11; controls 0 of 18).
Variant GFDLNEYGIS | VIYADGRRTAYADDVK | GETAGTFDI gave -0.01, 0.00, -0.14, -0.45, -0.38, -0.06 (mean -0.17; controls 0 of 18).
Variant GFDLDEYGIS | VIYADGVRTAYADSVK | GSNAGTFDI gave -0.49, -0.58, -0.53, -0.81, -0.75, -0.61 (mean -0.63; controls 1 of 18).
Variant GFDLNEYGIS | VIYADGVRKAYADDVK | GNTAGTFDV gave -1.05, -1.18, -0.33, -0.29, -0.42, -0.37 (mean -0.61; controls 0 of 18).